Assay results: PMC6664808 (Biotechnology and bioengineering, 2018)

Experiments:
Assay in all cases: flow cytometry on cells
Pro.v4-cNGF [1] = biological target: T1, Pro.v4-cNGF (Canis lupus familiaris, UniProt A0A8I3PYI3, point mutant)
Pro.v1-cNGF = Pro.v1-cNGF (Canis lupus familiaris, UniProt A0A8I3PYI3, point mutant)
Pro.v2-cNGF = Pro.v2-cNGF (Canis lupus familiaris, UniProt A0A8I3PYI3, point mutant)
Pro.v3-cNGF = Pro.v3-cNGF (Canis lupus familiaris, UniProt A0A8I3PYI3, point mutant)
Pro.v4-cNGF [2] = biological target: T1, Pro.v4-cNGF; remark: listed apart in the source

B1: Tanezumab (antibody, V domains shown)
VH: QVQLQESGPGLVKPSETLSLTCTVSGFSLIGYDLNWIRQPPGKGLEWIGIIWGDGTTDYNSAVKSRVTISKDTSKNQFSLKLSSVTAADTAVYYCARGGYWYATSYYFDYWGQGTLVTVSS
VL: DIQMTQSPSSLSASVGDRVTITCRASQSISNNLNWYQQKPGKAPKLLIYYTSRFHSGVPSRFSGSGSGTDFTFTISSLQPEDIATYYCQQEHTLPYTFGQGTKLEIK
Pro.v4-cNGF [1]
  Kd: 0.8 nM
Pro.v1-cNGF
  signal:noise ratio: 6.5 ratio (MFI over MFI of unlabeled cells)
Pro.v2-cNGF
  signal:noise ratio: 10.1 ratio (MFI over MFI of unlabeled cells)
Pro.v3-cNGF
  signal:noise ratio: 14.3 ratio (MFI over MFI of unlabeled cells)
Pro.v4-cNGF [2]
  signal:noise ratio: 14.3 ratio (MFI over MFI of unlabeled cells)
